Test results: US20160106813A1 (CENTRE NATIONAL DE LA RECHERCHE SCHIENTIFIQUE (CNRS), priority 2013, published 2016)

What was measured:
[1] = test system: langerin; assay: Langerin surface expression on MDLCs by flow cytometry; assay type: cell-based, human; settings: CGRP 100 nM, 24 h
Protocol: Flow cytometry for langerin surface expression was performed with a PE-conjugated mouse-anti-human langerin mAb (Beckman Coulter, Marseille, France). Each step was performed for 30 min on ice at 500/well.

[2] = test system: CGRP; assay: CGRP secreted by MDLCs to culture supernatants, CGRP ELISA; assay type: cell-based, human; settings: 100 nM CGRP 24 h pretreatment, washed, fresh medium 24 h
Protocol: The cells were then washed extensively and cultured in fresh medium for additional 24 h. The levels of CGRP secreted to the culture supernatants were measured by CGRP ELISA. Results represent mean±SEM from n=2 human donors. * p=0.0061 for CGRP-treated vs untreated; Student's t-test.

[3] = test system: CD29, CD49e and CD50; assay: Surface expression of integrins on Langerhans cells; assay type: cell-based
[4] = test system: HIV-1-infected cells; assay: Inner foreskin explants exposed to HIV-1-infected cells: LC-TC conjugate formation and mucosal TC infection, flow cytometry; assay type: cell-based; settings: 100 nM CGRP 24 h pretreatment, 4 h exposure
Protocol: FIG. 3: LC-TC conjugate formation and mucosal TC infection. […] Shown are representative FACS profiles with numbers representing the mean±s.e.m. (n=3) percentages within the entire cell-suspensions of either CD3+/CD1a+/high FSC LC-T-cell conjugates (top, epidermis) or CD3+/p24+ cells (bottom, dermis).
Inner foreskin explants were prepared, inoculated with HIV-1-infected PBMCs and processed for flow cytometry, as described (Zhou, et al.; PLoS Pathog 7:e1002100.).

[5] = test system: HIV-1 JRCSF; assay: HIV-1 content in lysates of HIV-1-pulsed Langerhans cells (HIV-1 degradation), p24 ELISA; assay type: cell-based; settings: CGRP 100 nM, 24 h pretreatment
Excerpt: The cells were then lysed with NP40 for HIV-1 degradation measurement by p24 ELISA (Innotest; Innogenetics, Gent, Belgium).

CC(C)C[C@H](NC(=O)CNC(=O)[C@H](C)NC(=O)[C@H](CC(C)C)NC(=O)[C@H](CCCNC(=N)N)NC(=O)[C@H](Cc1c[nH]cn1)NC(=O)[C@@H](NC(=O)[C@@H](NC(=O)[C@@H]1CSSC[C@H](NC(=O)[C@H](C)N)C(=O)N[C@@H](CC(=O)O)C(=O)N[C@@H]([C@@H](C)O)C(=O)N[C@@H](C)C(=O)N[C@@H]([C@@H](C)O)C(=O)N1)C(C)C)[C@@H](C)O)C(=O)N[C@@H](CC(C)C)C(=O)N[C@@H](CO)C(=O)N[C@@H](CCCNC(=N)N)C(=O)N[C@@H](CO)C(=O)NCC(=O)NCC(=O)N[C@H](C(=O)N[C@H](C(=O)N[C@@H](CCCCN)C(=O)N[C@@H](CC(N)=O)C(=O)N[C@@H](CC(N)=O)C(=O)N[C@@H](Cc1ccccc1)C(=O)N[C@H](C(=O)N1CCC[C@H]1C(=O)N[C@H](C(=O)N[C@@H](CC(N)=O)C(=O)N[C@H](C(=O)NCC(=O)N[C@@H](CO)C(=O)N[C@@H](CCCCN)C(=O)N[C@@H](C)C(=O)N[C@@H](Cc1ccccc1)C(N)=O)C(C)C)[C@@H](C)O)C(C)C)C(C)C)C(C)C [CGRP]
langerin surface expression [1]: increase | CGRP secretion by MDLCs [2]: significant increase | surface expression of several integrins (CD29, CD49e and CD50) [3]: decreasing | TCs infection mediated by HIV-1-infected cells (CD3+p24+ cells) [4]: abrogated | increase in LC-TC conjugate formation mediated by HIV-1-infected cells [4]: abrogated | total HIV-1 content in cell lysates [5]: decrease
